Measured values from patent US12507703B2, “Methods, devices and compositions for preserving human milk” (The Trustees of Princeton University, priority 2023, dated 2025).
Where “and” joins values, the source holds several entries; their conditions need not be identical. Identical values can stand only once. Counter-ions that a name gives are not always drawn.

Test system: lipase
Assay: Lipase/lipolysis assay (EnzChek Lipase Substrate, quenched BODIPY-fatty acid conjugate) on stored human milk
[1] = Biolog PM1 compound added to fresh human milk, stored 1 week at −20° C., RFU <400 = hit
[2] = Biolog PM5 compound added to fresh human milk, stored 1 week at −20° C., RFU <400 = hit
[3] = Food Additive Library compound added to fresh human milk, stored 1 week at −20° C., thawed at room temperature, RFU of <400 considered a hit
[4] = Food-Sourced Compound Library compound added to fresh human milk, stored 1 week at −20° C., thawed at room temperature, RFU <400 considered a hit
[5] = compound added to fresh human milk, stored 1 week at −20° C., thawed at room temperature, RFU <400 considered a hit
[6] = Biolog PM4 compound added to fresh human milk, stored 1 week at −20° C., RFU <400 = hit

Row | SMILES | Lipase (RFU) [3] | Lipase (RFU) [5] | other results
1 | OC[C@H]1O[C@@H](n2cnc3c(O)ncnc32)[C@H](O)[C@@H]1O [Inosine] | – | – | Lipase (RFU) [1]: 739.9959 RFU; Lipase (RFU) [2]: 959.6179 RFU
2 | OC[C@@H](O)[C@@H](O)[C@H](O)[C@H](O)CO [D-Mannitol] | 962.9718 RFU | – | Lipase (RFU) [1]: 1077.776 RFU; Lipase (RFU) [4]: 894.6274 RFU
3 | O=c1cc(-c2ccc(O)cc2)oc2cc(O)ccc12 [7,4′-Dihydroxyflavone] | – | 997.8526 RFU | –
4 | CC1=CCC2C[C@H]1C2(C)C [(1R)-α-Pinene] | – | 933.6802 RFU | –
5 | CCCCCCCCCC(O)CC(=O)O (centres unmarked) [3-Hydroxydodecanoic acid] | – | 1000.694 RFU | –
6 | Cc1ncc(C[n+]2csc(CCO)c2C)c(N)n1 [Thiamine (hydrochloride)] | 1314.57 RFU | 858.6987 RFU | –
7 | CCCCCCCCCCCCCC[C@@H](O)[C@@H](O)[C@@H](N)CO [Phytosphingosine] | – | 986.6872 RFU | –
8 | CC1(C)CC[C@]2(CO)CC[C@]3(C)C(=CC[C@@H]4[C@@]5(C)CC[C@H](O)C(C)(C)[C@@H]5CC[C@]43C)[C@@H]2C1 [Erythrodiol] | – | 872.6485 RFU | –
9 | O=Cc1ccc(O)c(O)c1 [Protocatechualdehyde] | – | – | Lipase (RFU) [4]: 988.7553 RFU
10 | O=c1ccn([C@@H]2O[C@H](COP(=O)(O)O)[C@@H](O)[C@H]2O)c(=O)[nH]1 [Uridine-5′-monophosphate] | – | – | Lipase (RFU) [6]: 946.5748 RFU
11 | OC[C@H]1O[C@@H](O[C@@H]2[C@@H](CO)OC(O)(CO)[C@H]2O)[C@H](O)[C@@H](O)[C@H]1O (mixture of isomers) [Lactulose] | – | – | Lipase (RFU) [1]: 721.9139 RFU
12 | CC[C@H](CC[C@@H](C)[C@H]1CC[C@H]2[C@@H]3CC=C4C[C@@H](O[C@@H]5O[C@H](CO)[C@@H](O)[C@H](O)[C@H]5O)CC[C@]4(C)[C@H]3CC[C@]12C)C(C)C [Daucosterol] | – | 990.8025 RFU | –
13 | COc1cc(O)c(CC=C(C)C)c2c1C(=O)C[C@@H](c1ccc(O)cc1)O2 [(2S)-Isoxanthohumol] | – | 876.9959 RFU | –
14 | O=C1O[C@H]([C@@H](O)CO)C(O)=C1O [Vitamin C, ascorbic acid] | – | – | Lipase (RFU) (Table 7, 500 μg/mL (vitamin C, E, carbonate/bicarbonates), human milk stored 1 week at −20° C., inhibited if RFU <400): 696.099 RFU
15 | NC(=O)c1ccccc1 [Benzamide] | – | 1097.474 RFU | –
16 | CC12CCC(CC1=O)C2(C)C (stereo not drawn) [(+)-Camphor] | 881.1343 RFU | – | –
17 | CCCCC/C=C/C(=O)O [(E)-Oct-2-enoic acid] | 890.5954 RFU | 900.5366 RFU | –
18 | O=C(O)c1cccnc1 [Nicotinic Acid] | – | – | Lipase (RFU) [2]: 1041.771 RFU
19 | CC(=O)N[C@H]1C(O)O[C@H](CO)[C@@H](O)[C@@H]1O (stereo partly drawn) [N-Acetyl-D-Glucosamine] | – | 1246.653 RFU | Lipase (RFU) [1]: 1097.413 RFU; Lipase (RFU) [2]: 1058.802 RFU
20 | Nc1ncnc2c1ncn2[C@@H]1O[C@H](COP(=O)(O)O)[C@@H](O)[C@H]1O [Adenosine-5′-monophosphate] | – | – | Lipase (RFU) [6]: 943.1275 RFU
21 | CC(/C=C/C=C(\C)C(=O)O)=C\C=C\C=C(C)\C=C\C=C(/C)C(=O)O [Transcrocetinate disodium] | – | 971.7624 RFU | –
22 | COc1cc(C(=O)O)cc(OC)c1O [Syringic acid] | – | – | Lipase (RFU) [4]: 793.4388 RFU
23 | CCOCc1ccccc1 [(Ethoxymethyl)benzene] | 811.133 RFU | – | –

Row | SMILES | Lipase (RFU) [3] | Lipase (RFU) [5] | other results
24 | O=C(O)[C@H](O)[C@@H](O)C(=O)O [L-Tartaric Acid] | 840.2751 RFU | – | Lipase (RFU) (Biolog PM2a compound added to fresh human milk, stored 1 week at −20° C., RFU <400 = hit): 877.178 RFU
25 | O=C(OCc1ccccc1)c1ccccc1 [Benzyl benzoate] | 984.2536 RFU | – | –
26 | Cc1cc(C(C)(C)C)c(O)c(C(C)(C)C)c1 [Butylated hydroxytoluene] | 1194.072 RFU | – | –
27 | CSCC[C@H](N)C(=O)O [Methionine] | – | 1064.048 RFU | –
28 | COc1ccccc1C=CC=O [Compound 2-Methoxycinnamaldehyde, 2-Methoxycinnamaldehyde] | 806.8366 RFU | 1103.02 RFU | –
29 | NC(=O)NC1NC(=O)NC1=O (centres unmarked) [Allantoin] | – | 1073.817 RFU | –
30 | N[C@H](CS)C(=O)O [D-Cysteine] | – | 631.2532 RFU | Lipase (RFU) [6]: 846.0712 RFU
31 | Cc1cc2nc3c(=O)[nH]c(=O)nc-3n(C[C@H](O)[C@H](O)[C@H](O)CO)c2cc1C [Riboflavin] | 837.9833 RFU | – | Lipase (RFU) [2]: 1037.621 RFU
32 | CCCCCCCCCCCCC(=O)O [Tridecanoic acid] | 833.6958 RFU | – | Lipase (RFU) [4]: 946.5476 RFU
33 | Nc1ccc(C(=O)O)cc1 [4-Aminobenzoic acid] | 1082.936 RFU | – | –
34 | Cc1ccc(C=O)c(O)c1 [2-Hydroxy-4-methylbenzaldehyde] | 1333.344 RFU | – | –
35 | O=C(OC[C@H]1O[C@@H](OC(=O)c2cc(O)c(O)c(OC(=O)c3cc(O)c(O)c(O)c3)c2)[C@H](OC(=O)c2cc(O)c(O)c(OC(=O)c3cc(O)c(O)c(O)c3)c2)[C@@H](OC(=O)c2cc(O)c(O)c(OC(=O)c3cc(O)c(O)c(O)c3)c2)[C@@H]1OC(=O)c1cc(O)c(O)c(OC(=O)c2cc(O)c(O)c(O)c2)c1)c1cc(O)c(O)c(OC(=O)c2cc(O)c(O)c(O)c2)c1 [Tannic acid] | 1033.049 RFU | 1076.036 RFU | –
36 | Cc1cccc(CC(=O)O)c1 [m-Tolylacetic acid] | – | – | Lipase (RFU) [4]: 989.3046 RFU
37 | O=c1[nH]c(=O)c2c[nH]nc2[nH]1 [Oxypurinol] | – | 1114.542 RFU | –
38 | CC1=CC(=O)CC1 [3-Methyl-2-cyclopenten-1-one] | 888.5186 RFU | – | Lipase (RFU) [4]: 916.3953 RFU
39 | Cc1ncc(CO)c(CN)c1O.Cl.Cl [Pyridoxylamine (dihydrochloride)] | – | 1154.431 RFU | –
40 | COc1cnccn1 [Compound 2-Methoxypyrazine, 2-Methoxypyrazine] | 1328.477 RFU | – | Lipase (RFU) [4]: 1228.173 RFU
41 | O=C(CO)N[C@H]1[C@H]([C@H](O)[C@H](O)CO)OC(O)(C(=O)O)C[C@@H]1O (some centres unmarked) [N-Glycolylneuraminic acid] | – | – | Lipase (RFU) [4]: 1126.23 RFU
42 | C=CCCC(=O)O [4-Pentenoic acid] | 813.3186 RFU | – | –
43 | Cc1ccccc1C(=O)NCC(=O)O [2-(2-Methylbenzamido)acetic acid] | – | 1362.377 RFU | –
44 | NCCCNCCCCNCCCN [Spermine] | – | – | Lipase (RFU) [2]: 1092.25 RFU; Lipase (RFU) [4]: 968.6677 RFU
45 | CC(=O)CCc1ccc(O)cc1 [Raspberry ketone] | 944.1144 RFU | – | –
46 | Cc1ccc(C=O)s1 [5-Methyl-2-thiophenecarboxaldehyde] | 884.2096 RFU | – | –

Row | SMILES | Lipase (RFU) [3] | Lipase (RFU) [5] | other results
47 | Cc1cc(C)c(O)c(C)c1 [2,4,6-Trimethylphenol] | 941.1667 RFU | 912.9048 RFU | –
48 | COc1ccccc1C [Compound 2-Methylanisole, 2-Methylanisole] | 800.3148 RFU | – | –
49 | Cn1c(=O)c2[nH]cnc2n(C)c1=O [Theophylline] | – | – | Lipase (RFU) [4]: 818.706 RFU
50 | C[C@@H]1CC[C@@]2(OC1)O[C@H]1C[C@H]3[C@@H]4CC=C5C[C@@H](O)CC[C@]5(C)[C@H]4CC[C@]3(C)[C@H]1[C@@H]2C [Diosgenin] | – | 1107.594 RFU | –
51 | CC[C@@H](C)[C@H](N)C(=O)O [L-Alloisoleucine] | – | – | Lipase (RFU) [4]: 1102.403 RFU
52 | CCCCCCCCC/C=C/C(=O)CCc1ccc(O)c(OC)c1 [[10]-Shogaol] | – | – | Lipase (RFU) [4]: 1308.714 RFU
53 | CCC(C)C(=O)C(=O)O (centres unmarked) [3-Methyl-2-oxovaleric acid] | 1424.933 RFU | – | Lipase (RFU) [4]: 984.6358 RFU
54 | O=C(O)/C=C\C=C/C(=O)O [cis,cis-Muconic acid] | – | 988.7628 RFU | –
55 | CCCCCCCCCCCCCCCC(=O)OC[C@H](O)[C@H]1OC(=O)C(O)=C1O [Ascorbyl palmitate] | 1048.408 RFU | – | –
56 | Cc1cc2nc3c(=O)[nH]c(=O)nc-3n(C[C@H](O)[C@H](O)[C@H](O)COP(=O)(O)OP(=O)(O)OC[C@H]3O[C@@H](n4cnc5c(N)ncnc54)[C@H](O)[C@@H]3O)c2cc1C | – | 1000.841 RFU | –
57 | CC(=O)N[C@@H](CS)C(=O)O [Acetylcysteine] | – | 763.6539 RFU | –
58 | O=c1c(-c2ccc(O)cc2)coc2cc(O)cc(O)c12 [Genistein] | – | 921.4345 RFU | –
59 | CC(O)CC(=O)O (centres unmarked) [3-Hydroxybutyric acid] | – | – | Lipase (RFU) [4]: 1129.967 RFU
60 | O=CC[C@@H](O)[C@H](O)[C@H](O)COP(=O)(O)O [2-Deoxy-D-Glucose 6-Phosphate] | – | – | Lipase (RFU) [6]: 1037.931 RFU
61 | Cc1ncc(C[n+]2csc(CCO)c2C)c(N)n1 [Thiamine] | – | – | Lipase (RFU) [2]: 935.4969 RFU and 938.7666 RFU
62 | O=C1OC[C@H]2OC(O)[C@H](O)[C@@H](O)[C@@H]2OC(=O)c2cc(O)c(O)c(O)c2-c2c(O)c(O)c3oc(=O)c4c(c(O)c(O)c5oc(=O)c2c3c54)-c2c1cc(O)c(O)c2O (mixture of isomers) [Punicalin] | – | – | Lipase (RFU) [4]: 818.9774 RFU
63 | O=C(O)[C@@H](O)[C@H](O)[C@H](O)[C@@H](O)C(=O)O [Mucic Acid] | – | – | Lipase (RFU) [1]: 636.2061 RFU
64 | COc1cccc(C(=O)O)c1 [3-Methoxybenzoic acid] | 1182.162 RFU | – | –
65 | O[C@@H]1[C@@H](O)[C@@H]2OC[C@@H](O2)[C@H]1O [Levoglucosan] | – | – | Lipase (RFU) [4]: 572.1788 RFU
66 | CC(C)=CCC[C@@H](C)CCO [(R)-Citronellol] | – | 691.7924 RFU | –
67 | N[C@@H](CO)C(=O)O [L-Serine] | 814.6528 RFU | 1099.786 RFU | Lipase (RFU) [1]: 1052.209 RFU; Lipase (RFU) [2]: 724.1414 RFU
68 | CC(C)C(=O)C(=O)O [3-Methyl-2-oxobutanoic acid] | – | 878.2265 RFU | –
